## Measured affinities in a library of Ab-14 light chain variants

Reference: Li et al. 2023, doi:10.1038/s41467-023-39022-2. File: FLAb, binding data.

Antigen: PDVDLGDISGINAS, a 14-residue peptide of the SARS-CoV-2 spike HR2 region.

Each scFv is VH, a (GGGGS)3 linker, VL, as in the parent Ab-14, and differs from it in the CDRs of the light chain only.
VH: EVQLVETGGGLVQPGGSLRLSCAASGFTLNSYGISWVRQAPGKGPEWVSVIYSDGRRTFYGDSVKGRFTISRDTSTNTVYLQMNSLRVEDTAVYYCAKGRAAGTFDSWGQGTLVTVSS
VL: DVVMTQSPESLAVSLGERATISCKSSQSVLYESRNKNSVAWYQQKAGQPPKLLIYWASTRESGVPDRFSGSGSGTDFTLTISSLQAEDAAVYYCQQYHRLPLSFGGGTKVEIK

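The parent was found by panning a naive human phage display library on the peptide. Designed CDR sequences, proposed from the first random library and measured here. Group labels follow the data file (Ctrl: baseline library sampled from a position-specific scoring matrix, with some repeated check sequences; GP: Gaussian process model; HC: hill climbing; Gen: genetic algorithm; a sequence that several methods proposed may carry one label only). The assay is AlphaSeq: two haploid yeast populations carry antibody and antigen on their surface. After mating in shaken culture at 30 °C for 16 h, diploids were selected and their barcode pairs sequenced. Scores were corrected for input abundance and mapped to Kd with protein pairs of known affinity run in the same pool. Each pool was mated in six replicate cultures.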

Positions count from residue 1 of the parent VL; S25F puts F in place of S.
The read-out is the apparent dissociation constant on a log10 scale (nM): the lower, the stronger.
The mean shown is taken over the replicates in which the pair was detected.
"nd" marks a missing value. The strain was present, yet no cells mated with the target were sequenced in that replicate, which points to weak or no binding.
As a blank, each scFv also met three strains without target: over all light chain designs, 4% of these pairings were detected, typically at 2.64 and seldom below 1.59. For each scFv, signals with the empty controls are counted beside the result, with their mean in brackets.
In the paper, a design with two or fewer of six values counts as a poor binder.
The parent sequence was in this pool as ten entries: three were never detected, three once, and four in most replicates, with averages from 0.34 to 2.37.
Values of this round are not directly comparable with the first-round values of the same sequences.
Some sequences occur more than once in the pool; their replicates are listed entry by entry, parted by semicolons.

| changes | group | replicates, log10 nM | mean log10 Kd (nM) | empty controls |
|---|---|---|---|---|
| S25F/W56S | Ctrl | 0.29 / 0.64 / -0.34 / -0.59 / -0.23 / 0.32 | 0.02 | 0/18 |
| S26Q/N35Q/K36F | Ctrl | nd / nd / nd / 2.57 / 2.49 / nd | 2.53 | 1/18 (2.61) |
| R34S/R99P | Ctrl | 1.56 / 2.64 / 1.07 / nd / 1.31 / nd | 1.65 | 2/18 (2.18) |
| Y31T/N37D/W56N/H98L | Ctrl | 0.71 / 0.45 / 1.04 / 0.02 / 0.82 / 2.04 | 0.85 | 0/18 |
| S25M/E61C | Ctrl | 0.92 / 0.76 / 0.58 / 0.94 / 0.97 / 1.10 | 0.88 | 0/18 |
| V29T/A57G/H98R | Ctrl | nd / nd / nd / nd / nd / nd | nd | 0/18 |
| S25C/R34P | Ctrl | 1.07 / 1.41 / 0.95 / 0.76 / 1.54 / 1.17 | 1.15 | 0/18 |
| R34S/W56A | Ctrl | 0.54 / 0.29 / 0.54 / 0.36 / 0.26 / 0.50 | 0.41 | 1/18 (2.77) |
| K24I/S25L/S38H/S58T | Ctrl | 1.63 / 1.39 / 1.43 / 1.92 / 2.01 / 1.83 | 1.70 | 1/18 (3.46) |
| N35V/S103G | Ctrl | nd / nd / nd / nd / nd / nd | nd | 0/18 |
| Q27H/Y31A/S38Q/L100F | Ctrl | 1.57 / 1.69 / nd / nd / 1.38 / 2.84 | 1.87 | 0/18 |
| V29N | Ctrl | 1.24 / 2.01 / 1.95 / 2.14 / 2.13 / 3.33 | 2.14 | 1/18 (2.76) |
| L30S/R34T/W56S/E61I/L100N | Ctrl | nd / 1.64 / nd / nd / 2.11 / 2.46 | 2.07 | 0/18 |
| K24H/Q27E/Y31S/K36Q/W56N/S62I/R99I | Ctrl | 1.71 / 1.39 / 1.10 / 1.05 / 0.94 / 0.93 | 1.19 | 2/18 (2.53) |
| H98S/P101Q/L102C | Ctrl | nd / nd / nd / nd / nd / nd | nd | 0/18 |
| S25Y/R34L/W56N/S58R | Ctrl | 0.29 / 0.23 / 0.13 / 0.05 / 0.28 / 0.23 | 0.20 | 1/18 (3.71) |
| Y31V/K36P/H98P | Ctrl | 1.69 / nd / nd / nd / nd / nd | 1.69 | 2/18 (1.21) |
| R34D/W56Q/S62K | Ctrl | 0.15 / 0.00 / -0.21 / -0.17 / -0.15 / 0.36 | 0.00 | 1/18 (2.40) |
| K24I/Q27R/S33K | Ctrl | nd / nd / nd / nd / nd / nd | nd | 1/18 (1.88) |
| W56E/L100W | Ctrl | 1.13 / 1.36 / 2.14 / 0.89 / 1.64 / 1.47 | 1.44 | 2/18 (2.64) |
| S25M/Y31M/W56Q | Ctrl | 0.09 / -0.12 / -0.02 / -0.33 / -0.08 / 0.10 | -0.06 | 2/18 (2.13) |
| S33E/R34A | Ctrl | nd / nd / nd / nd / nd / nd | nd | 0/18 |
| S25L/V29D/K36V/W56A/S62Y/Y97Q | Ctrl | 2.09 / 1.33 / 0.95 / 1.17 / 1.48 / 1.55 | 1.43 | 0/18 |
| S25I/S33G/W56K/R99H | Ctrl | nd / 1.16 / 0.84 / 0.80 / 0.52 / 0.31 | 0.73 | 0/18 |
| K24R/Y31E/N37D/W56N/Q96T | Ctrl | 0.34 / 0.25 / 0.17 / 0.02 / 0.10 / 0.36 | 0.21 | 1/18 (3.14) |
| Y31T/S33G/W56N | Ctrl | 0.65 / 0.49 / 0.28 / 0.47 / 0.59 / 0.75 | 0.54 | 1/18 (2.78) |
| N35D/W56Q/R99I | Ctrl | 1.15 / 1.34 / 1.38 / 1.01 / 1.03 / 1.29 | 1.20 | 0/18 |
| W56E/A57S | Ctrl | 1.70 / 1.82 / 0.94 / 2.14 / 2.36 / 0.96 | 1.66 | 1/18 (1.87) |
| W56Q/T59D/L100M | Ctrl | 1.69 / 2.14 / 1.23 / 1.37 / 0.72 / 4.34 | 1.92 | 0/18 |
| S25N/R34D/R60P/Q96V/R99S | Ctrl | nd / nd / nd / nd / nd / nd | nd | 0/18 |
| K36P/S62V/Q96H | Ctrl | nd / 2.26 / nd / nd / nd / 1.56 | 1.91 | 0/18 |
| Q27I/W56E | Ctrl+GP_HC | 0.82 / 0.57 / 0.66 / 0.49 / 0.25 / 0.61; 0.90 / 0.64 / 0.73 / 0.95 / 0.58 / 0.72 | 0.66 | 2/36 (2.62) |
| L30P/Y31C | Ctrl | nd / nd / nd / nd / nd / nd | nd | 0/18 |
| K24V/S25L/Y31D/N37H/W56E/R60Q | Ctrl | 0.44 / 0.17 / 0.35 / 0.34 / 0.10 / 0.48 | 0.31 | 1/18 (1.44) |
| S25C/R99H | Ctrl | nd / nd / nd / nd / 2.60 / 2.39 | 2.50 | 0/18 |
| Q27E/L30C/T59M | Ctrl | nd / 1.67 / nd / 1.83 / 1.70 / 2.20 | 1.85 | 0/18 |
| W56G/T59K/E61P | Ctrl | nd / nd / nd / nd / nd / nd | nd | 1/18 (1.75) |
| V29L/S33G/W56R/H98G | Ctrl | nd / 2.03 / 2.75 / nd / 2.87 / 2.51 | 2.54 | 1/18 (1.91) |
| Y31G/N37D/S38A | Ctrl | nd / 1.83 / nd / 0.78 / nd / 2.24 | 1.62 | 0/18 |
| L30P/Y31K/S38N/W56D/R99G | Ctrl | 1.21 / 1.12 / 0.99 / 0.70 / 1.04 / 2.27 | 1.22 | 0/18 |
| S38N/R99I/L100H | Ctrl | nd / nd / nd / nd / nd / nd | nd | 0/18 |
| S25F/V29Y/W56G | Ctrl+GP_Gen | 0.16 / 0.01 / -0.32 / -0.25 / -0.03 / 0.22; 1.63 / 1.32 / 0.91 / 1.20 / 1.19 / 1.32 | 0.61 | 2/36 (2.64) |
| L30E/N35S/W56R | Ctrl | 2.76 / 3.01 / nd / 2.17 / 2.03 / 1.72 | 2.34 | 0/18 |

The first 7 variants above that were never detected:

| changes | group | replicates, log10 nM | mean log10 Kd (nM) | empty controls |
|---|---|---|---|---|
| V29T/A57G/H98R | Ctrl | nd / nd / nd / nd / nd / nd | nd | 0/18 |
| N35V/S103G | Ctrl | nd / nd / nd / nd / nd / nd | nd | 0/18 |
| H98S/P101Q/L102C | Ctrl | nd / nd / nd / nd / nd / nd | nd | 0/18 |
| K24I/Q27R/S33K | Ctrl | nd / nd / nd / nd / nd / nd | nd | 1/18 (1.88) |
| S33E/R34A | Ctrl | nd / nd / nd / nd / nd / nd | nd | 0/18 |
| S25N/R34D/R60P/Q96V/R99S | Ctrl | nd / nd / nd / nd / nd / nd | nd | 0/18 |
| L30P/Y31C | Ctrl | nd / nd / nd / nd / nd / nd | nd | 0/18 |